US4794118A, “1,4-benzodioxane derivatives” (Eisai Co., Ltd., priority 1985, dated 1988)

System: arterial and venous systems
Test: Effects on the arterial and venous systems in anesthetized open-chest dogs
Assay type: in vivo, mongrel dogs
Conditions: for Max. change in mean blood pressure at diastole, Aortic / Max. change in mean blood pressure at diastole, Pulmonary: anesthetized open-chest dogs
Procedure: Effects on the arterial and venous systems in anesthetized open-chest dogs
Mongrel dogs of either sex, weighing 12-16 kg were subjected to inhalation anesthesia with enflurane under artificial respiration. The dogs were subjected to thoracotomy through the fourth right intercostal wall and catheters were inserted into the thoracic aorta and right pulmonary artery. The aortic and pulmonary blood pressures were measured by means of cathether tip-type piezoelectric transducers.
Test compounds were cumulatively administered with intervals of 30 minutes either intravenously or intraduodenally through catheters placed in the left femoral vein and duodenum.

O=[N+]([O-])O[C@H]1CO[C@H]2[C@@H]1OC[C@H]2O[N+](=O)[O-]
Max. change in mean blood pressure at diastole, Aortic (i.d, 30 μg/Kg): -5 mm/Hg | Max. change in mean blood pressure at diastole, Pulmonary (i.d, 30 μg/Kg): -0.7 mm/Hg | Max. change in mean blood pressure at diastole, Aortic (i.d, 100 μg/Kg): -6.7 mm/Hg | Max. change in mean blood pressure at diastole, Pulmonary (i.d, 100 μg/Kg): -0.7 mm/Hg | Max. change in mean blood pressure at diastole, Aortic (i.d, 300 μg/Kg): -5.8 mm/Hg | Max. change in mean blood pressure at diastole, Pulmonary (i.d, 300 μg/Kg): -1.7 mm/Hg | Max. change in mean blood pressure at diastole, Aortic (i.v, 30 μg/Kg): -2 mm/Hg | Max. change in mean blood pressure at diastole, Pulmonary (i.v, 30 μg/Kg): -2.5 mm/Hg | Max. change in mean blood pressure at diastole, Aortic (i.v, 100 μg/Kg): 0 mm/Hg | Max. change in mean blood pressure at diastole, Pulmonary (i.v, 100 μg/Kg): -2.8 mm/Hg | Max. change in mean blood pressure at diastole, Aortic (i.v, 300 μg/Kg): -6 mm/Hg | Max. change in mean blood pressure at diastole, Pulmonary (i.v, 300 μg/Kg): -3.8 mm/Hg | effect on the aortic pressure (intravenous, dogs, dose-range 30 times larger than that of compound A): minimum
